Measured values published in PubChem BioAssay AID1347041 (National Center for Advancing Translational Sciences (NCATS), 2019).
Only a part is listed here, and it is no random draw. The source made the active and inactive calls. Rule as the data show it: active = activity change below about -30%; inconclusive = mostly about -25% to -30%; inactive = weaker than that.

Target: L-lactate dehydrogenase A chain (Homo sapiens) (UniProt P00338)
Test: qHTS assay for inhibitors of human lactate dehydrogenase;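 also: values are at about 110 or 230 µM; plate controls were DMSO wells for no effect and wells without enzyme for full effect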
Conditions: purified LDHA, NADH/diaphorase-resazurin fluorescence; stronger effect = lower value
Text: LDH is a key glycolytic enzyme that catalyzes the final step in the glycolytic pathway, reducing pyruvate to lactate and regenerating NAD+ equivalents necessary for continued glycolysis. LDHA has been linked to the carcinogenesis and malignancy in numerous forms of cancers and many other diseases. Consequently, both pharma and academia have invested in significant research efforts to identify small molecule therapeutics. Such attempts have been stalled or abandoned due to limited success in discovering potent and drug-like inhibitors that can be utilized to validate LDHA in vivo as a drug target, a necessary step toward advancing such a molecule towards the clinic Towards this goal we designed and performed a quantitative high-throughput screening (qHTS) campaign to discover novel compounds that are potent inhibitors of LDHA enzyme activity and cancer cell line growth.
The assay was optimized to 1536-well plates. Briefly, 3 µL of human lactate dehydrogenase 5 (#A38558H, Meridian Life Science, Inc., Memphis, TN) in LDH assay buffer (200 mM Tris HCl pH 7.4, 100 microM EDTA and 0.01% Tween-20) was added to a black solid bottom 1536-well assay plate (Greiner Bio-One) using a BioRAPTR FRD dispenser (Beckman Coulter, Brea, CA). A 1536-well pintool dispenser outfitted with 20 nL pins (Wako Automation, San Diego, CA) was used to transfer 23 nL of DMSO-solubilized compound (both library and vehicle controls) to each 1536-well assay plate. Following compound transfer, 1 µL of substrate solution containing NADH and sodium pyruvate (Sigma-Aldrich, St. Louis, MO) in LDH assay buffer was dispensed via BioRAPTR FRD to initiate the reaction. Final concentrations in the 4 microL reaction volume were 2 nM LDHA enzyme, 0.06 mM NADH and 0.2 mM sodium pyruvate. Following a 5 minute incubation period at room temperature, 1 µL of detection reagent (C. kluyveri diaphorase (Sigma-Aldrich) and resazurin sodium salt (Sigma-Aldrich) in LDH assay buffer) was added to a total volume of 5 µL. Final concentrations of detection reagents were 0.133 mg/mL diaphorase and 37 µM resazurin. Plates were immediately transferred to a ViewLux microplate imager (PerkinElmer, Waltham, MA), and any resulting resorufin fluorescence was measured (ex540, em590 nm) at 0 and 20 minutes. Fluorescence was normalized using enzyme-free and DMSO-treated control wells on each plate.

| SMILES | activity change |
| --- | --- |
| O=c1[nH]c2ccccc2n1C1CCN(C(c2cccc3ccccc23)c2nnnn2C2CCCC2)CC1 (stereo unspecified) | inactive: -6.15% |
| Cc1ccc(C(C)CCN(CCCl)CCCl)cc1 (stereo unspecified) | inactive: -4.77% |
| O=C(NCC1(N2CCCCC2)CCCCC1)c1c[nH]c2ccccc12 | inactive: 19.9% |
| CCOC(=O)N1CCC(Nc2cccc(C)c2)CC1 | inactive: 1.38% |
| COc1cc(C(=O)NCC2(N(C)C)CCCCC2)ccc1OC(F)F | inactive: -7.92% |
| O=c1[nH]c2ccccc2n1C1CCN(C(c2ccccc2)c2nnnn2C2CCCCC2)CC1 (stereo unspecified) | inactive: -7.64% |
| CCCOc1ccccc1C(=O)NCC1(N2CCOCC2)CCCCC1 | inactive: 10.9% |
| COc1ccc(NC2CCN(CCc3ccccc3)CC2)c(OC)c1 | inactive: 22.6% |
| CCOC(=O)N1CCC(Nc2ccc(F)cc2)CC1 | inactive: 0.796% |
| CCCCn1nnnc1C(c1cc2ccccc2o1)N1CCC(n2c(=O)[nH]c3ccccc32)CC1 (stereo unspecified) | inactive: -0.105% |
| O=P1(N(CCCl)CCCl)SCCCS1 | inactive: -5.74% |
| CCCCOc1ccc(C(=O)NCC2(N3CCOCC3)CCCCC2)cc1 | inactive: -8.1% |
| O=C(NCC1(N2CCCCC2)CCCCC1)c1ccc(F)cc1 | inactive: -4.36% |
| COc1ccccc1C(=O)NCC1(N2CCOCC2)CCCCC1 | inactive: -2.49% |
| CN(C)C1(CNC(=O)c2nn(C)c(=O)c3ccccc23)CCCCC1 | inactive: -18.6% |
| CCOc1ccc(C)cc1CN(CCCl)CCCl | inactive: -3.37% |
| O=C1CCN(Cc2ccccc2)CC1 | inactive: -1.52% |
| O=C(NCC1(N2CCOCC2)CCCCC1)c1ccc(Cl)cc1 | inactive: 4.18% |
| CC(C)(C)n1nnnc1C(c1ccccc1)N1CCC(n2c(=O)[nH]c3ccccc32)CC1 (stereo unspecified) | inactive: 3.04% |
| CCCCn1nnnc1C(c1ccc(OC)cc1)N1CCC(n2c(=O)[nH]c3ccccc32)CC1 (stereo unspecified) | inactive: -1.8% |
| CCOC(=O)N1CCC(Nc2ccc(OC)cc2)CC1 | inactive: 7.05% |
| COc1ccc(Cl)cc1C(=O)NCC1(N2CCOCC2)CCCCC1 | inactive: -8.95% |
| Fc1ccc(CN2CCC(Nc3ccccc3Cl)CC2)cc1 | inactive: 4.47% |

| SMILES | activity change |
| --- | --- |
| O=C1C(O)=C([N+](=O)[O-])C(=O)C(O)=C1[N+](=O)[O-] | inactive: 3.92% |
| O=C(NCC1(N2CCCCC2)CCCCC1)c1ccc(Cl)s1 | inactive: 3.8% |
| N#CC1(Nc2ccccc2)CCN(Cc2ccccc2)CC1 | inactive: -2.93% |
| O=C(OC1CN2CCC1CC2)C1c2ccccc2Oc2ccccc21 (stereo unspecified) | inactive: 17.1% |
| CC1CN(CCc2ccccc2)CCC1=O (stereo unspecified) | inactive: -1.11% |
| O=c1[nH]c2ccccc2n1C1CCN(C(c2cc3ccccc3o2)c2nnnn2C2CCCCC2)CC1 (stereo unspecified) | inactive: -8.45% |
| O=C(NCC1(N2CCOCC2)CCCCC1)c1cc2ccccc2o1 | inactive: -1.46% |
| Cc1cc(C)cc(N(C(=O)c2ccccc2)C2CCN(C(=O)OC(C)(C)C)CC2)c1 | inactive: -0.888% |
| O=C(NCC1(N2CCCCC2)CCCCC1)c1ccc(Cl)nc1 | inactive: -0.514% |
| O=c1[nH]c2ccccc2n1C1CCN(C(c2ccccc2OC(F)(F)F)c2nnnn2C2CCCCC2)CC1 (stereo unspecified) | inactive: -2.43% |
| Cc1cccc(NC2(C#N)CCN(Cc3ccccc3)CC2)c1 | inactive: -0.769% |
| CSc1ccccc1C(=O)NCC1(N2CCCCC2)CCCCC1 | inactive: -14.4% |
| O=C(NCC1(N2CCCCC2)CCCCC1)c1cccs1 | inactive: -1.41% |
| CCCCn1nnnc1C(CC)N1CCC(n2c(=O)[nH]c3ccccc32)CC1 (stereo unspecified) | inactive: -7.6% |
| CCCCn1nnnc1C(c1cccs1)N1CCC(n2c(=O)[nH]c3ccccc32)CC1 (stereo unspecified) | inactive: -3.53% |
| O=C(NCC1(N2CCCCC2)CCCCC1)c1ccc(=O)[nH]c1 | inactive: -0.713% |
| CC(C)(C)OC(=O)N1CCC(N(C(=O)c2ccccc2)c2ccc(F)cc2)CC1 | inactive: -4.15% |
| COc1ccc(C(=O)NCC2(N3CCCCC3)CCCCC2)c(OC)c1OC | inactive: -4.13% |
| CCC(c1nnnn1C1CCCC1)N1CCC(n2c(=O)[nH]c3ccccc32)CC1 (stereo unspecified) | inactive: -5.2% |
| COc1ccc(C(=O)NCC2(N3CCCCC3)CCCCC2)cc1 | inactive: -7.21% |
| O=C(NCC1(N2CCOCC2)CCCCC1)c1ccccc1Br | inactive: -6.61% |
| CCCOc1ccc(C(=O)NCC2(N(C)C)CCCCC2)cc1OC | inactive: -6.75% |
| CCCCOc1ccccc1C(=O)NCC1(N2CCOCC2)CCCCC1 | inactive: 4.2% |
